{
  "source": "patent US8541471B2",
  "about": "“Water-soluble strontium salts for use in treatment of cartilage and/or bone conditions” (Osteologix A/S, priority 2003, dated 2013)",
  "key": {"[1]": {"details": "rat, in vivo, po"}},
  "data": [
    {"substance": "strontium alpha-ketoglutarate [α-ketogluterate]", "values": [
      {"measurement": "AUC", "setting": "[1]", "result": 9000, "unit": "mg·min/L"},
      {"measurement": "SOLUBILITY AT 40° C. pH 7.5", "result": 3809, "unit": "mg/L"},
      {"measurement": "SOLUBILITY AT ROOM TEMPERATURE (22-24° C.) pH 7.5", "result": 2252, "unit": "mg/L"}
    ]}
  ]
}
